Data on 1 compound can be found in article PMC11645235 (Cell, 2024).

The assay relates to CRISPR-associated adenosine deaminase 1 (Cad1). The experiment in a line: ITC; co-crystal structure at […] Å (also cryo-EM of full-length hexamer with ATP, 9C77). (In general: Isothermal titration calorimetry measures the heat released or taken up as one component is titrated into another.)

By Kd is commonly meant the equilibrium constant for the complex coming apart. The low end stands for tighter binding, the high end for weaker binding.

Consider `Nc1ncnc2c1ncn2[C@@H]1O[C@@H]2COP(=O)(O)O[C@H]3[C@@H](O)[C@H](n4cnc5c(N)ncnc54)O[C@@H]3COP(=O)(O)O[C@H]3[C@@H](O)[C@H](n4cnc5c(N)ncnc54)O[C@@H]3COP(=O)(O)O[C@H]3[C@@H](O)[C@H](n4cnc5c(N)ncnc54)O[C@@H]3COP(=O)(O)O[C@H]2[C@H]1O`, for which the Kd is 735 nM.
